Source: patent US9481673B2

Protein sequences, listed by entry. Tags and fused reporters are not part of them.
UniProt P10635, whole entry: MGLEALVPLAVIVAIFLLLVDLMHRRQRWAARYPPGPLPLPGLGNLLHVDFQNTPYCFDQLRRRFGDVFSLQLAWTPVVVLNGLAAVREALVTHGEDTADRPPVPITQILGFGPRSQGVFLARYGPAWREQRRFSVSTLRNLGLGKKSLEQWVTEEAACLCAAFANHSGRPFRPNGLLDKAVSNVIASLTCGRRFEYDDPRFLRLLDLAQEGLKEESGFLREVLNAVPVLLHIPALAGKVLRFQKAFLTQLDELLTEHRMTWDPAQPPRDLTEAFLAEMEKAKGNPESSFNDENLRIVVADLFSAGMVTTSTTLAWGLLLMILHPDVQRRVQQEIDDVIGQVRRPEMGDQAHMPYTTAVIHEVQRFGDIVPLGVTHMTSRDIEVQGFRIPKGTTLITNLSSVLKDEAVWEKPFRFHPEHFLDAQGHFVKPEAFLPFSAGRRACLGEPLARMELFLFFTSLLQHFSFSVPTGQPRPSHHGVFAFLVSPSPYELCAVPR

Molecular target: P450 2D6 (Homo sapiens (Human), UniProt P10635)
Assay: Cytochrome P450 isoenzyme inhibition assay, demethylation of Dextromethorphan
Format: in vitro ADME
Conditions: (S)-isomers; human liver microsomes, 37° C.

Row | Compound | IC50 [µM]
1 | CN[C@@H](C)C(=O)Nc1ccc(-c2c(-c3cnc(C)nc3)nc3cc(C)ccn23)c(C#Cc2ccc3c(C)nccc3c2)n1 [(S)-7, (2S)-N-{5-[7-methyl-2-(2-methylpyrimidin-5-yl)imidazo[1,2-a]-pyridin-3-yl]-6-[2-(1-methylisoquinolin-6-yl)ethynyl]pyridin-2-yl}-2-(methylamino)-propanamide] | > 50
2 | CN[C@@H](C)C(=O)Nc1ccc(-c2c(-c3cccnc3OC)nc3ccccn23)c(C#Cc2ccc3c(C)nccc3c2)n1 [(S)-16, (2S)-N-{5-[2-(2-methoxypyridin-3-yl)imidazo[1,2-a]-pyridin-3-yl]-6-[2-(1-methylisoquinolin-6-yl)ethynyl]pyridin-2-yl}-2-(methylamino)-propanamide] | 29
